The source of these data is PubChem BioAssay AID651654 (Broad Institute, 2012).

This is a selection; strong and weak results do not stand in their true shares. Activity calls are given as the source filed them.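 The calls were made as follows: active = mean lysis activity across replicates of at least 80%, whatever share of replicates individually reach that level; inactive = mean lysis activity below 80%.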

A short description of the assay: fungicidal lysis via adenylate kinase leakage – AK release luminescence, single concentration, primary screen (AID 651654). The settings on record: C. neoformans lysis, 4 h, at 15 µM, hits give high values, normalised: neutral wells 0, clomiphene wells 100. A digest of the protocol:
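Assay system: C. neoformans cells. Amount: yeast cell density of 5 × 10^6 cells/mL. Technique: AK luminescence. Buffer or medium: YPD. Times: static 4 h at 37 °C with compound, 1 h detection. Dosing: single-point compound dose. Read-out: lysis from increased AK signal.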
Take `O=[N+]([O-])c1cc([N+](=O)[O-])c(Nc2ccccn2)c([N+](=O)[O-])c1`: the lysis activity was inactive: -11%. The value for `COc1ccccc1OP(C)(=O)Nc1ccc(C)cc1C` (configuration not stated) was inactive: 0.807%; that for `CP(=O)(Nc1ccccn1)Oc1ccccc1` (configuration not stated) was inactive: -0.91%; that for `CCc1ccc(OP(C)(=O)O)cc1` was inactive: -1.93%.

`COc1ccccc1OP(C)(=O)Nc1ccc(Br)cc1` (configuration not stated): the lysis activity was inactive: -0.373%. The value for `COc1ccc(OP(C)(=O)Nc2ccccn2)cc1` (configuration not stated) was inactive: 11.6%; that for `CN(C)CCOC(=O)C(O)(c1ccccc1)C1CCCC1` (configuration not stated) was inactive: 1.46%. The value for `CP(=O)(Nc1ccc(Cl)cc1Cl)Oc1ccccc1` (configuration not stated) was inactive: 0.178%. As to `O=C1C(O)=C([N+](=O)[O-])C(=O)C(O)=C1[N+](=O)[O-]`, the lysis activity is inactive: 1.33%. On to `COc1ccccc1OP(C)(=O)Nc1ccc(C)c(C)c1` (configuration not stated), for which the lysis activity was inactive: -2.4%. The value for `CCOC(=O)c1ccc(NP(C)(=O)Oc2ccc(Cl)cc2)cc1` (configuration not stated) was inactive: -2.59%; that for `CP(=O)(OC12CC3CC(CC(C3)C1)C2)OC12CC3CC(CC(C3)C1)C2` was inactive: 0.079%; that for `COc1ccccc1OP(C)(=O)Nc1ccccc1Br` (configuration not stated) was inactive: 0.517%. The value for `CC(C)(C)c1ccc(OP(C)(=O)O)cc1` was inactive: 1.67%; that for `CP(=O)(Nc1ccc(Cl)cc1)Oc1ccc(F)cc1` (configuration not stated) was inactive: -0.59%; that for `COc1ccc(OP(C)(=O)Nc2ccc(Br)cc2)cc1` (configuration not stated) was inactive: 1.18%.

Take `CCN(CC)CC(O)COC(=O)C(O)(c1ccccc1)C1CCCCC1` (configuration not stated): the lysis activity is inactive: -1.1%. The value for `O=C(OCCCN1CCCC1)C(O)(c1ccccc1)C1CCCCC1` (configuration not stated) was inactive: -0.898%; that for `COc1ccccc1OP(C)(=O)Nc1c(C)n(C)n(-c2ccccc2)c1=O` (configuration not stated) was inactive: 1.52%.

In the case of `CCc1ccc(OP(C)(=O)Nc2cccnc2)cc1` (configuration not stated), the lysis activity is inactive: -1.13%. The value for `CP(=O)(Oc1ccccc1)N1CCOC1=O` (configuration not stated) was inactive: -2.46%; that for `CP(=O)(Nc1ccc2c(c1)OCCO2)Oc1ccccc1` (configuration not stated) was inactive: -2.09%. The result for `Cc1ccccc1NP(C)(=O)Nc1ccccc1C` reads inactive: -0.772%. The result for `CCOP(C)(=S)SCC(=O)NC(C)(CC)C(=O)O` (configuration not stated) reads inactive: -4.97%; that for `O=[N+]([O-])c1ccc(OP2(=O)COCCO2)cc1` (configuration not stated), inactive: -5.82%; that for `Cc1cc(-c2cccc3ccccc23)c(C)cn1.O=[N+]([O-])c1cc([N+](=O)[O-])c(O)c([N+](=O)[O-])c1`, inactive: 13.5%. `Cc1c(C(c2ccc3c(c2)OCO3)c2c(C)n(C)n(-c3ccccc3)c2=O)c(=O)n(-c2ccccc2)n1C.O=[N+]([O-])c1cc([N+](=O)[O-])c(O)c([N+](=O)[O-])c1`: the lysis activity is inactive: 4.21%.
